# Reference: US20100129319A1, “TREATMENT OF DISEASE OR INJURY OF THE NERVOUS SYSTEM USING AGENTS THAT DECREASE THE ACTIVITY OF THE MELANOCORTIN 4 RECEPTOR” (priority 2006, published 2010)
# By UniProt entry, the sequences of proteins in these tests, tags left out.
# UniProt P32245, whole entry: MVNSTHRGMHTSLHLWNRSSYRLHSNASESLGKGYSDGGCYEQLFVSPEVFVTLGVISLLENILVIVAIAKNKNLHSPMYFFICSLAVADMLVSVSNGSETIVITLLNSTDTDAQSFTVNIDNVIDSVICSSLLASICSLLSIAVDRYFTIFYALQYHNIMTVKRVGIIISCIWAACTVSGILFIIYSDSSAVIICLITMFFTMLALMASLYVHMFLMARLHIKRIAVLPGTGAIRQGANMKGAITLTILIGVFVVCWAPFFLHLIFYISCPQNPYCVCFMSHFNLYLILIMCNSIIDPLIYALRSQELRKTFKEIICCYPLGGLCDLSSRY
# Target: MC4R (Homo sapiens, UniProt P32245)
# Test: MC4R IC50 (nM)^a
# Settings: read-out: MC4R IC50 (nM)^a
smiles,measurement,value
CC(C)(C)CC(=O)N1CCN(C(=O)C[C@H](Cc2ccc(Cl)cc2)C(=O)N2CCN(c3ccccc3N(CC3CC3)S(C)(=O)=O)CC2)CC1,IC50,< 0.1 nM
